Results taken from ChEMBL document CHEMBL5614419, “Discovery of novel BCL6-Targeting PROTACs with effective antitumor activities against DLBCL in vitro and in vivo” (Eur J Med Chem, 2024).

Experiments:
Format in all cases: functional, cell-based
Conditions in all cases: time 6.0 day
DOHH-2 = assay: Antiproliferative activity against BCL6-dependent human DOHH-2 cells assessed as inhibition in cell growth measured after 6 days by MTS assay
SUD4 = assay: Antiproliferative activity against BCL6-dependent human SU-DHL-4 cells assessed as inhibition in cell growth measured after 6 days by MTT assay
SU-DHL-6 = assay: Antiproliferative activity against BCL6-dependent human SU-DHL-6 cells assessed as inhibition in cell growth measured after 6 days by MTT assay
OCI-Ly1 = assay: Antiproliferative activity against BCL6-dependent human OCI-Ly1 cells assessed as inhibition in cell growth measured after 6 days by MTT assay

Measured: Activity

COc1cc(Nc2nc(N3CCN(CCOCCNc4cccc5c4C(=O)N(C4CCC(=O)NC4=O)C5=O)CC3)ncc2F)ccc1NC(=O)c1ccc(C2=CCCC2)s1 (centres undefined)
active: DOHH-2 = Dose-Dependent Effect | SUD4 = Dose-Dependent Effect | SU-DHL-6 = Dose-Dependent Effect | OCI-Ly1 = Dose-Dependent Effect
